Assay results published in patent publication US20120135923A1, “Use of Melanocortins to Treat Dyslipidemia” (IPSEN PHARMA, S.A.S., priority 2009, published 2012).

Protein sequences, listed by entry. Tags and fused reporters are not part of them. Lines headed by an entry give the natural chain unless they say otherwise; changes in a name come on top.
UniProt P32245, whole entry: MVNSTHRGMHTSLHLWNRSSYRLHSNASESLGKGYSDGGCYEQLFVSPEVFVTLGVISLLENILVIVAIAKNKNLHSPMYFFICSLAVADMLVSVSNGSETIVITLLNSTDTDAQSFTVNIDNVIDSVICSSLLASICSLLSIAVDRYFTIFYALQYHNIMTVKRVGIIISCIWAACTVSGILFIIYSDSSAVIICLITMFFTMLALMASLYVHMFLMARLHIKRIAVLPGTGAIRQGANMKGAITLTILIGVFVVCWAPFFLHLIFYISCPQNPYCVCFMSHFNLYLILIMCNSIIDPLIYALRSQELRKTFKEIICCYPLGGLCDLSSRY
UniProt P41968: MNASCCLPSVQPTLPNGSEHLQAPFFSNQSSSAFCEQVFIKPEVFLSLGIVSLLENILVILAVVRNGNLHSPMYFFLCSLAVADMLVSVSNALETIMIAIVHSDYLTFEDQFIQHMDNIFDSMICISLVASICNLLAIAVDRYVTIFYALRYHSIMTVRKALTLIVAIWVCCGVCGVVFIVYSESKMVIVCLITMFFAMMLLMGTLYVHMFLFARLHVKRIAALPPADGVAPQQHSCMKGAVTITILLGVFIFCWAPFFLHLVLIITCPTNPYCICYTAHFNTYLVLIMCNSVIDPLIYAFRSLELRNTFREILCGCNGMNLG
UniProt Q01726: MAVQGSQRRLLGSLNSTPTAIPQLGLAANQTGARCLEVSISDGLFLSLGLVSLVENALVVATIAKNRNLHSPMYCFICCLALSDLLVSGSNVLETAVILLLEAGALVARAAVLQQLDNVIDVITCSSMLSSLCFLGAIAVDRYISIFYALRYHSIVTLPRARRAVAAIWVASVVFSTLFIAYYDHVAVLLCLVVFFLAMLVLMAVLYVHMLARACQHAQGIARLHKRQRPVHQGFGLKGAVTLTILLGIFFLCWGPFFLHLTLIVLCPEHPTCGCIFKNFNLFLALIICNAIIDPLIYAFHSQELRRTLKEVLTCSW

Columns and labels:
hMC4-R [1] = molecular target: T1, hMC4-R (Homo sapiens, UniProt P32245); test: cyclic AMP bioassay (ECL) in CHO-K1 cells; assay type: cell-based; conditions: Table 11
T1 construct: expressed in transfected cells; host or cells: CHO-K1

hMC4-R [2] = molecular target: T1, hMC4-R; test: Radioligand binding assay, [125I]-NDP-α-MSH competition, CHO-K1 membranes; conditions: Ki hMC4, Table 7
Protocol: (§1) Cellular membranes used for the in vitro receptor binding assays were obtained from transgenic CHO-K1 cells stably expressing hMC-R receptor subtypes 1, 3, 4 or 5. […] The pellets were resuspended in the same buffer and centrifuged at 50,000 g for 10 minutes at approximately 4° C. The washed pellets containing the cellular membranes were stored at approximately −80° C.
(§2) Cell membranes (1-10 μg protein/well) prepared as described above were incubated in 50 mM Tris-HCl at pH 7.4 containing 0.2% bovine serum albumin (BSA), 5 mM MgCl2, 1 mM CaCl2 and 0.1 mg/mL bacitracin, with increasing concentrations of the test compound and 0.1-0.3 nM [^25I]-NDP-α-MSH for approximately 90-120 minutes at approximately 37° C. […] Filters were washed three times with 50 mM Tris-HCl at pH 7.4 at a temperature of approximately 0-4° C. and then assayed for radioactivity using a Packard Topcount® scintillation counter. Binding data were analyzed by computer-assisted non-linear regression analysis (XL fit; IDBS).

hMC3-R = molecular target: T2, hMC3-R (Homo sapiens, UniProt P41968); test: as above; conditions: Ki hMC3, Table 7
T2 construct: expressed in transfected cells; host or cells: CHO-K1
Protocol: as §1, §2

hMC1-R = molecular target: T3, hMC1-R (Homo sapiens, UniProt Q01726); test: as above; conditions: Ki hMC1, Table 7
T3 construct: expressed in transfected cells; host or cells: CHO-K1
Protocol: as §1, §2

| Structure (SMILES) | Ki (hMC4-R [2]) [nM] | Ki (hMC3-R) [nM] | other results |
| --- | --- | --- | --- |
| N=C(N)NCCC[C@@H]1NC(=O)[C@@H](Cc2ccccc2)NC(=O)[C@H](Cc2cnc[nH]2)NC(=O)[C@H](CCC(=O)O)NC(=O)[C@@H](NC(=O)CN2C(=O)CNC2=O)CSSC[C@@H](C(N)=O)NC(=O)[C@H](Cc2c[nH]c3ccccc23)NC1=O [Hydantoin(C(O)-(Gly-Gly))-c(Cys-Glu-His-D-Phe-Arg-Trp-Cys)-NH2] | – | – | EC50 (hMC4-R [1]): 0.214 nM |
| CC(C)[C@@H]1NC(=O)N(CC(=O)N[C@H]2CSSC[C@@H](C(N)=O)NC(=O)[C@H](Cc3c[nH]c4ccccc34)NC(=O)[C@H](CCCNC(=N)N)NC(=O)[C@@H](Cc3ccccc3)NC(=O)[C@H](Cc3cnc[nH]3)NC(=O)[C@@H](C)NC2=O)C1=O [Hydantoin(C(O)-(Val-Gly))-c(Cys-D-Ala-His-D-Phe-Arg-Trp-Cys)-NH2] | 8.66 | – | – |
| C[C@H]1NC(=O)[C@@H](NC(=O)CN2C(=O)CNC2=O)CSSC[C@@H](C(N)=O)NC(=O)[C@H](Cc2c[nH]c3ccccc23)NC(=O)[C@H](CCCNC(=N)N)NC(=O)[C@@H](Cc2ccccc2)NC(=O)[C@H](Cc2cnc[nH]2)NC1=O [Hydantoin(C(O)-(Gly-Gly))-c(Cys-D-Ala-His-D-Phe-Arg-Trp-Cys)-NH2] | 8.32 | 69.7 | – |
| CCCC[C@@H](C(=O)N[C@H]1CSSC[C@@H](C(N)=O)NC(=O)[C@H](Cc2c[nH]c3ccccc23)NC(=O)[C@H](CCCNC(=N)N)NC(=O)[C@@H](Cc2ccccc2)NC(=O)[C@H](Cc2cnc[nH]2)NC(=O)[C@@H](C)NC1=O)N1C(=O)N[C@@H](C(C)C)C1=O [Hydantoin(C(O)-(Val-Nle))-c(Cys-D-Ala-His-D-Phe-Arg-Trp-Cys)-NH2] | – | – | Ki (hMC1-R): 33.7 nM |
| CC[C@H](C)[C@@H]1NC(=O)N([C@H]2CSSC[C@@H](C(N)=O)NC(=O)[C@H](Cc3c[nH]c4ccccc34)NC(=O)[C@H](CCCNC(=N)N)NC(=O)[C@@H](Cc3ccccc3)NC(=O)[C@H](Cc3cnc[nH]3)NC(=O)[C@@H](C)NC2=O)C1=O [c[Hydantoin(C(O)-(Ile-Cys))-D-Ala-His-D-Phe-Arg-Trp-Cys]-NH2] | – | 1760 | – |
